Values of other authors in US20170029494A1, “Antigen Binding Constructs” (Glaxo Group Limited, priority 2011, published 2017).

Protein sequences, listed by entry. Tags and fused reporters are not part of them. Residues count along the entry.
UniProt P35968, 20-1356, species assumed: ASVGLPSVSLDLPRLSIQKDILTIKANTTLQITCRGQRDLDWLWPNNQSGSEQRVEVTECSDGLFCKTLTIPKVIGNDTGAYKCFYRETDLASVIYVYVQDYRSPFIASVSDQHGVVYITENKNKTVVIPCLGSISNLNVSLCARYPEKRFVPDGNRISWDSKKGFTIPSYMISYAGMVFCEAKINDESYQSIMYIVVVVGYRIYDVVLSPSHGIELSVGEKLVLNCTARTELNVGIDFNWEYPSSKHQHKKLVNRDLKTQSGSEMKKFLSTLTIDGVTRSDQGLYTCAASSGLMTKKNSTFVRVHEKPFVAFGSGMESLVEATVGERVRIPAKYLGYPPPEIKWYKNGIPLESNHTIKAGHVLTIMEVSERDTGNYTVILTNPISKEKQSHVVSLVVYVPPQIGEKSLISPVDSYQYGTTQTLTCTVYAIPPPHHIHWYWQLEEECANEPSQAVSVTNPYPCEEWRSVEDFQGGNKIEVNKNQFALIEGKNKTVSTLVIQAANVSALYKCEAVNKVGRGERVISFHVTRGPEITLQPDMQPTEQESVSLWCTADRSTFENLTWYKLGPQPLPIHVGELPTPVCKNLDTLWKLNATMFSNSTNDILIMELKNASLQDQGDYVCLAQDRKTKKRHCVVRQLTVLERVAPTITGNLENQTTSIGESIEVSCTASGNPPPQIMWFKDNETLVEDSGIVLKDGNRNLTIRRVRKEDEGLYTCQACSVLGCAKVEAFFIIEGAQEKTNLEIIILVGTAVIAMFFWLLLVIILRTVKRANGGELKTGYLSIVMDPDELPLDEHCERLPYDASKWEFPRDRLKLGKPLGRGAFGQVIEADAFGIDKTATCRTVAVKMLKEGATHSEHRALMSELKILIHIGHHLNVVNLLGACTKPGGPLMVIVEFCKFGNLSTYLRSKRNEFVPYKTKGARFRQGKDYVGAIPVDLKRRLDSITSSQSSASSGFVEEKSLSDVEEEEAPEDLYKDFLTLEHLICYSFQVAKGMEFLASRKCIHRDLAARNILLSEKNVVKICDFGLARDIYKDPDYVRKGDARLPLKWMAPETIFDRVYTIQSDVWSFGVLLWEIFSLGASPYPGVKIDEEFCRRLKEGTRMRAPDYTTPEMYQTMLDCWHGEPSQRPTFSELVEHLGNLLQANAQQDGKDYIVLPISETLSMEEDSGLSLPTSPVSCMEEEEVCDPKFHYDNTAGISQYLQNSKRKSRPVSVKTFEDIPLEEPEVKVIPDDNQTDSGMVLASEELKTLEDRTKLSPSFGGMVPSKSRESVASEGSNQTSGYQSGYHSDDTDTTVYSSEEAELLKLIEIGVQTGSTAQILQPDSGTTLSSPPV

Molecular target: VEGFR2 (Flk-2; KDR) (Homo sapiens, UniProt P35968)
Details: cited from earlier work

Question: Which Kd does the source give for VEGF here?
Answer: 0.1 nM
